Patent US9757471B2, “Protozoan variant-specific surface proteins (VSP) as carriers for oral drug delivery” (priority 2012, dated 2017)
Entries after “also recorded” stand apart in the source; their conditions may differ.

Tested on: trypsin
Conditions: combined with VSP carrier at 1:3 glucagon to VSP ratio

CSCC[C@H](NC(=O)[C@H](CC(C)C)NC(=O)[C@H](Cc1c[nH]c2ccccc12)NC(=O)[C@H](CCC(N)=O)NC(=O)[C@@H](NC(=O)[C@H](Cc1ccccc1)NC(=O)[C@H](CC(=O)O)NC(=O)[C@H](CCC(N)=O)NC(=O)[C@H](C)NC(=O)[C@H](CCCN=C(N)N)NC(=O)[C@H](CCCN=C(N)N)NC(=O)[C@H](CO)NC(=O)[C@H](CC(=O)O)NC(=O)[C@H](CC(C)C)NC(=O)[C@H](Cc1ccc(O)cc1)NC(=O)[C@H](CCCCN)NC(=O)[C@H](CO)NC(=O)[C@H](Cc1ccc(O)cc1)NC(=O)[C@H](CC(=O)O)NC(=O)[C@H](CO)NC(=O)[C@@H](NC(=O)[C@H](Cc1ccccc1)NC(=O)[C@@H](NC(=O)CNC(=O)[C@H](CCC(N)=O)NC(=O)[C@H](CO)NC(=O)[C@@H](N)Cc1c[nH]cn1)[C@@H](C)O)[C@@H](C)O)C(C)C)C(=O)N[C@@H](CC(N)=O)C(=O)N[C@H](C(=O)O)[C@@H](C)O [glucagon]
resistance of glucagon to trypsin proteolysis: increased the resistance; also recorded: protects glucagon from trypsin degradation
